Assay results reported in patent publication US10870689B2, “ApoM-Fc fusion proteins, complexes thereof with sphingosine 1-phosphate (S1P), and methods for treating vascular and non-vascular diseases” (Children's Medical Center Corporation, priority 2016, dated 2020).

The chains behind the UniProt entries cited, without tags or fusion partners.
UniProt P21453, whole entry: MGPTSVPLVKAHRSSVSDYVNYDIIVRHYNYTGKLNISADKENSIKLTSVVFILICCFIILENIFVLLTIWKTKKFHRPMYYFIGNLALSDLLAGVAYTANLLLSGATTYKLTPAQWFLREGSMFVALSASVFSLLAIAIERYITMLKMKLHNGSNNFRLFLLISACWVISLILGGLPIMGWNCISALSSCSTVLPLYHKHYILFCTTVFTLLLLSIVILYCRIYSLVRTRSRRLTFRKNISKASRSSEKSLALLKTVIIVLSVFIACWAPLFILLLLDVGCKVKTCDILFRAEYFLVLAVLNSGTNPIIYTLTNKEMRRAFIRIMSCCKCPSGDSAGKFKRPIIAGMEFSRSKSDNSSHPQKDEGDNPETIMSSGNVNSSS

Biological target: T1, S1P1 (Homo sapiens, UniProt P21453)
T1 construct: expressed in transfected cells
Assay: S1P1 internalization in U2OS cells expressing S1P1-GFP
Type: cell-based
Conditions: 30 min
Experimental: The human osteosarcoma cell line, U2OS, was created to stably express the S1P1 receptor fused to GFP and selected for high-level expression. Cells were plated in a 384 well plate and brought to confluence. Cells were then starved in serum-free media for 2 hours and individual wells were stimulated for 30 minutes with several concentrations of FTY720-P, Albumin-S1P (10-100 nM), ApoM-Fc-S1P (1-20 μg/ml ) or ApoM-Fc-TM (1-20 μg/ml). Cells were then fixed for 15 minutes with 4% PFA and permeabilized 10 minutes in PBS-0.1% Triton. Nuclei were stained with DAPI for 5 minutes. Cells were maintained in PBS, imaged in 384 well plates by an ArrayScan VTI at 10× using the spot detector software.

## CCCCCCCCc1ccc(CC[C@](N)(CO)COP(=O)(O)O)cc1 [FTY720-P]
  internalization of S1P1 receptor: induced
